# Test results: PMC8149352, “The pharmacokinetics of pamiparib in the presence of a strong CYP3A inhibitor (itraconazole) and strong CYP3A inducer (rifampin) in patients with solid tumors: an open-label, parallel-group phase 1 study” (Cancer Chemotherapy and Pharmacology, 2021)
# Test: Part A safety: adverse events (NCI CTCAE v5.0), safety population
# Assay type: in vivo, human (patients with advanced solid tumors)
# Conditions: Part A (N = 12); by treatment period
# Protocol: This was an open-label, parallel-group, phase 1 study consisting of a 2-part core phase and an extension phase. Only results for the core phases are reported herein (Supplementary Fig. 1). Part A of the core phase assessed the effect of the strong CYP3A inducer rifampin on the PK of pamiparib in patients with advanced solid tumors. Patients received a single dose of oral pamiparib 60 mg on days 1 and 10, and oral rifampin 600 mg QD on days 3–11. Patients fasted for at least 8 h before and at least 4 h after receiving pamiparib and rifampin. Blood samples for PK analysis were obtained on days 1 and 10 at predose, and at 0.5, 1, 2, 4, 6, 9, 12, 24, and 48 h postdose. Pamiparib plasma concentrations were determined using a validated liquid chromatography–mass spectrometry/mass spectrometry method (lower limit of quantification 1.0 ng/mL) at Covance Laboratory Services (Salt Lake City, Utah).
# Adverse events (AEs) were monitored throughout the study and were graded according to the National Cancer Institute Common Terminology Criteria v5.0.
# The safety population included all patients who received at least one dose of pamiparib. […] Plasma PK parameters were calculated from pamiparib concentration–time profiles using standard noncompartmental methods. PK parameters were calculated using Phoenix WinNonlin v6.4 or higher (Certara, Princeton, NJ, USA). […]
smiles,measurement,value
"CO[C@H]1/C=C/O[C@@]2(C)Oc3c(C)c(O)c4c(O)c(c(/C=N/N5CCN(C)CC5)c(O)c4c3C2=O)NC(=O)/C(C)=C\C=C\[C@H](C)[C@H](O)[C@@H](C)[C@@H](O)[C@@H](C)[C@H](OC(C)=O)[C@@H]1C [Rifampin, rifampin]","All TEAEs (any grade), patients",2 (16.7) n (%)
